Experimental data reported in patent publication US20050244472A1, “Intraocular drug delivery systems containing excipients with reduced toxicity and related methods” (Allergan, Inc., priority 2004, published 2005).
Like-named read-outs stand apart in the source and are kept apart here.

Key:
[1] = pH of excipient-containing incubating solutions; format: physicochemical
Description: For each concentration of tested compound, pH and osmolarity parameters were measured.

[2] = system: ARPE-19 cells; format: cell-based
Description: Cell morphology was visualized using light microscopy. Cell morphology observation using light microscopy permits determination of (i) cell number and density and (ii) whether or not cells in contact with an excipient agent display modified phenotype compared to a non-treated population of cells.
Cell morphology was analyzed in parallel by semi-quantitative scoring ranging from 5 to 1, from basal to lethal phenotype respectively, as shown in FIG. 23.
More specifically, cells were removed from an incubator for examination. Morphological shape of cells was visualized using a light microscope and CCD camera. Every 3 wells of a given concentration was observed through image analysis software. Then, a representative photograph describing the average appearance of cells was saved. The supernatant was either, kept for further predefined experiments to perform, or removed using vacuum-pump.
Resulting semi-quantitative scoring is represented as a function of time course and dose response. Score 5: wild type phenotype of non-treated cells, 100% confluent adherent cells. This phenotype very much vary following post-seeding time. For example, at confluence ARPE-19 cells at 1 day appear well defined with visible outer membrane and dark grey cytoplasm. After 3 days of confluence, limits between cells become less visible and cells adopt a more hexagonal shape and constitute an epithelium-like uniform dense structure. Score 4: density<100%. Cell shape has changed, some spaces are present between cells, few cells possibly detached. Score 3: […]. Spaces are sometimes present among cells, areas appears confluent while in others, cells detached. General cell shape starts showing non negligible alterations. Score 2: Cell density<50%. Cells adopt exclusively stressed appearance, presence of mass dead floating cells. Score 1: Cell density<10%. Presence of almost exclusively dead cells.
Based on quotation, each condition of the applied compound was given a score which allow to a morphology evolution profile to be prepared, ie. cell morphology as a function of compound concentration and time of exposure. […]

[3] = system: ARPE-19 cells
Source text: Cell viability and cell morphology were examined to evaluate the toxicity of excipients on retinal pigment epithelial cells. The human retina cell line used in these experiments is the ARPE-19 cell line (human adult-derived retinal pigmented epithelial cells). […] They form tight-junctions with transepithelial resistance of monolayers (Dunn K C et al., supra). […]
To assess cell viability, mitochondrial metabolism was quantified through conventional colorometric assays (i.e., the MTT assay). […] A resulting purple solution is spectrophotometrically measured. Cell viability is relative to amount of formazan and calculated as a percentage of remaining treated compared to non-treated cells.
Results from the MTT assay were expressed as a percentage of cell viability calculated using the following equation: % cell viability=ODtest/ODcontrol×100.
For each experiment, one concentration was performed in triplicate. Each point was spectrophotometrically read twice. Average of readings was calculated, then average from these 3 values was determined.
After 3 experiments were independently completed under the same conditions, a graph was plotted with cell viability expressed as a function of concentration (dose response) and for various incubation period (time course). […]

## hydroxypropyl gamma-cyclodextrin [Cavasol]
[1]; 0.1% excipient dilution in culture medium
  pH: 7.6
[1]; 0.5% excipient dilution in culture medium
  pH: 7.6
[1]; 1% excipient dilution in culture medium
  pH: 7.6
[1]; 5% excipient dilution in culture medium
  pH: 7.6
[1]; 10% excipient dilution in culture medium
  pH: 7.6
[1]; 20% excipient dilution in culture medium
  pH: 7.6
[2]; 0.05% excipient, 24 Hours
  Cell Morphology score, Mean: 5.0
  Cell Morphology score, experiment 1: 5 (Score 5: wild type phenotype of non-treated cells, 100% confluent adherent cells)
  Cell Morphology score, experiment 2: 5 (Score 5: wild type phenotype of non-treated cells, 100% confluent adherent cells)
  Cell Morphology score, experiment 3: 5 (Score 5: wild type phenotype of non-treated cells, 100% confluent adherent cells)
[2]; 0.05% excipient, 48 Hours
  Cell Morphology score, Mean: 5.0
  Cell Morphology score, experiment 1: 5 (Score 5: wild type phenotype of non-treated cells, 100% confluent adherent cells)
  Cell Morphology score, experiment 2: 5 (Score 5: wild type phenotype of non-treated cells, 100% confluent adherent cells)
  Cell Morphology score, experiment 3: 5 (Score 5: wild type phenotype of non-treated cells, 100% confluent adherent cells)
[2]; 0.05% excipient, 72 Hours
  Cell Morphology score, Mean: 5.0
  Cell Morphology score, experiment 1: 5 (Score 5: wild type phenotype of non-treated cells, 100% confluent adherent cells)
  Cell Morphology score, experiment 2: 5 (Score 5: wild type phenotype of non-treated cells, 100% confluent adherent cells)
  Cell Morphology score, experiment 3: 5 (Score 5: wild type phenotype of non-treated cells, 100% confluent adherent cells)
[2]; 0.1% excipient, 24 Hours
  Cell Morphology score, Mean: 5.0
  Cell Morphology score, experiment 1: 5 (Score 5: wild type phenotype of non-treated cells, 100% confluent adherent cells)
  Cell Morphology score, experiment 2: 5 (Score 5: wild type phenotype of non-treated cells, 100% confluent adherent cells)
  Cell Morphology score, experiment 3: 5 (Score 5: wild type phenotype of non-treated cells, 100% confluent adherent cells)
[2]; 0.1% excipient, 48 Hours
  Cell Morphology score, Mean: 5.0
  Cell Morphology score, experiment 1: 5 (Score 5: wild type phenotype of non-treated cells, 100% confluent adherent cells)
  Cell Morphology score, experiment 2: 5 (Score 5: wild type phenotype of non-treated cells, 100% confluent adherent cells)
  Cell Morphology score, experiment 3: 5 (Score 5: wild type phenotype of non-treated cells, 100% confluent adherent cells)
[2]; 0.1% excipient, 72 Hours
  Cell Morphology score, Mean: 4.7
  Cell Morphology score, experiment 1: 5 (Score 5: wild type phenotype of non-treated cells, 100% confluent adherent cells)
  Cell Morphology score, experiment 2: 5 (Score 5: wild type phenotype of non-treated cells, 100% confluent adherent cells)
  Cell Morphology score, experiment 3: 4 (Score 4: density<100%)
[2]; 0.5% excipient, 24 Hours
  Cell Morphology score, Mean: 5.0
  Cell Morphology score, experiment 1: 5 (Score 5: wild type phenotype of non-treated cells, 100% confluent adherent cells)
  Cell Morphology score, experiment 2: 5 (Score 5: wild type phenotype of non-treated cells, 100% confluent adherent cells)
  Cell Morphology score, experiment 3: 5 (Score 5: wild type phenotype of non-treated cells, 100% confluent adherent cells)
[2]; 0.5% excipient, 48 Hours
  Cell Morphology score, Mean: 4.7
  Cell Morphology score, experiment 1: 5 (Score 5: wild type phenotype of non-treated cells, 100% confluent adherent cells)
  Cell Morphology score, experiment 2: 5 (Score 5: wild type phenotype of non-treated cells, 100% confluent adherent cells)
  Cell Morphology score, experiment 3: 4 (Score 4: density<100%)
[2]; 0.5% excipient, 72 Hours
  Cell Morphology score, Mean: 4.3
  Cell Morphology score, experiment 1: 5 (Score 5: wild type phenotype of non-treated cells, 100% confluent adherent cells)
  Cell Morphology score, experiment 2: 5 (Score 5: wild type phenotype of non-treated cells, 100% confluent adherent cells)
  Cell Morphology score, experiment 3: 3 (Score 3: 80%<Cell density<40%)
[2]; 1.0% excipient, 24 Hours
  Cell Morphology score, Mean: 5.0
  Cell Morphology score, experiment 1: 5 (Score 5: wild type phenotype of non-treated cells, 100% confluent adherent cells)
  Cell Morphology score, experiment 2: 5 (Score 5: wild type phenotype of non-treated cells, 100% confluent adherent cells)
  Cell Morphology score, experiment 3: 5 (Score 5: wild type phenotype of non-treated cells, 100% confluent adherent cells)
[2]; 1.0% excipient, 48 Hours
  Cell Morphology score, Mean: 4.7
  Cell Morphology score, experiment 1: 5 (Score 5: wild type phenotype of non-treated cells, 100% confluent adherent cells)
  Cell Morphology score, experiment 2: 5 (Score 5: wild type phenotype of non-treated cells, 100% confluent adherent cells)
  Cell Morphology score, experiment 3: 4 (Score 4: density<100%)
[2]; 1.0% excipient, 72 Hours
  Cell Morphology score, Mean: 3.7
  Cell Morphology score, experiment 1: 5 (Score 5: wild type phenotype of non-treated cells, 100% confluent adherent cells)
  Cell Morphology score, experiment 2: 5 (Score 5: wild type phenotype of non-treated cells, 100% confluent adherent cells)
  Cell Morphology score, experiment 3: 1 (Score 1: Cell density<10%)
[2]; 5.0% excipient, 24 Hours
  Cell Morphology score, Mean: 4.3
  Cell Morphology score, experiment 1: 5 (Score 5: wild type phenotype of non-treated cells, 100% confluent adherent cells)
  Cell Morphology score, experiment 2: 5 (Score 5: wild type phenotype of non-treated cells, 100% confluent adherent cells)
  Cell Morphology score, experiment 3: 3 (Score 3: 80%<Cell density<40%)
[2]; 5.0% excipient, 48 Hours
  Cell Morphology score, Mean: 4.7
  Cell Morphology score, experiment 1: 5 (Score 5: wild type phenotype of non-treated cells, 100% confluent adherent cells)
  Cell Morphology score, experiment 2: 5 (Score 5: wild type phenotype of non-treated cells, 100% confluent adherent cells)
  Cell Morphology score, experiment 3: 4 (Score 4: density<100%)
[2]; 5.0% excipient, 72 Hours
  Cell Morphology score, Mean: 3.3
  Cell Morphology score, experiment 1: 5 (Score 5: wild type phenotype of non-treated cells, 100% confluent adherent cells)
  Cell Morphology score, experiment 2: 4 (Score 4: density<100%)
  Cell Morphology score, experiment 3: 1 (Score 1: Cell density<10%)
[2]; 10.0% excipient, 24 Hours
  Cell Morphology score, Mean: 4.3
  Cell Morphology score, experiment 1: 5 (Score 5: wild type phenotype of non-treated cells, 100% confluent adherent cells)
  Cell Morphology score, experiment 2: 5 (Score 5: wild type phenotype of non-treated cells, 100% confluent adherent cells)
  Cell Morphology score, experiment 3: 3 (Score 3: 80%<Cell density<40%)
[2]; 10.0% excipient, 48 Hours
  Cell Morphology score, Mean: 3.3
  Cell Morphology score, experiment 1: 5 (Score 5: wild type phenotype of non-treated cells, 100% confluent adherent cells)
  Cell Morphology score, experiment 2: 4 (Score 4: density<100%)
  Cell Morphology score, experiment 3: 1 (Score 1: Cell density<10%)
[2]; 10.0% excipient, 72 Hours
  Cell Morphology score, Mean: 3.0
  Cell Morphology score, experiment 1: 4 (Score 4: density<100%)
  Cell Morphology score, experiment 2: 4 (Score 4: density<100%)
  Cell Morphology score, experiment 3: 1 (Score 1: Cell density<10%)
[3]
  overall cytotoxicity to ARPE-19 cells (conclusion in words): overall limited cytotoxicity
